From paper PMC10673258, “Taxifolin as a Metallo-β-Lactamase Inhibitor in Combination with Augmentin against Verona Imipenemase 2 Expressing Pseudomonas aeruginosa” (Microorganisms, 2023)

Test: Toxicity against wild type human HEK 293T cells
Type: cell-based
Details: HEK293T cells (wild type); quercetin analogs alone; human kidney cell line HEK293T

O=c1c(O)c(-c2ccc(O)c(O)c2)oc2cc(O)c(O)c(O)c12 [compound 4, quercetagetin]
CC50: > 200 µM
